Permeability data for macrocyclic peptides

PAMPA measures passive passage through an artificial lipid membrane. Permeability is in 10^-6 cm/s, converted from the database's log10 values; higher is more permeable.

| structure (SMILES) | PAMPA (10^-6 cm/s) |
|---|---|
| CC(C)C[C@@H]1NC(=O)[C@H](CC(C)C)N(C)C(=O)C[C@H](Cc2ccccc2)NC(=O)[C@@H]2CCCN2C(=O)[C@H](Cc2ccccc2)NC(=O)[C@@H](CC(C)C)N(C)C(=O)[C@H]2CCCN2C1=O | 2.8 |
| CC(C)C[C@@H]1NC(=O)[C@@H](CC(C)C)N(C)C(=O)C[C@H](Cc2ccccc2)NC(=O)[C@@H]2CCCN2C(=O)[C@H](Cc2ccccc2)NC(=O)[C@@H](CC(C)C)NC(=O)[C@H]2CCCN2C1=O | 2.7 |
| CC(C)C[C@@H]1NC(=O)[C@@H]2CCCN2C(=O)CN(Cc2ccccc2)C(=O)[C@@H](CC(C)C)N(C)C(=O)[C@H](C)NC(=O)[C@H](Cc2ccccc2)NC1=O | 1.2 |
| CC(C)C[C@@H]1NC(=O)[C@H](C)N(C)C(=O)[C@H]2CCCN2C(=O)[C@H](Cc2ccccc2)NC(=O)[C@@H](CC(C)C)N(C)C(=O)[C@H]2CCCN2C(=O)[C@@H](CC(C)C)NC1=O | 2.6 |
| CC(C)C[C@@H]1NC(=O)[C@@H]2CCCN2C(=O)CN(Cc2ccccc2)C(=O)[C@H](CC(C)C)N(C)C(=O)[C@@H](C)NC(=O)[C@H]2CCCN2C(=O)[C@H](Cc2ccccc2)NC1=O | 0.59 |
| CC(C)C[C@@H]1NC(=O)[C@@H](CC(C)C)NC(=O)C[C@H](Cc2ccccc2)NC(=O)[C@@H]2CCCN2C(=O)[C@H](Cc2ccccc2)NC(=O)[C@@H](CC(C)C)N(C)C(=O)[C@H]2CCCN2C1=O | 3.7 |
| CC(C)C[C@@H]1NC(=O)CN(Cc2ccccc2)C(=O)C[C@H](Cc2ccccc2)NC(=O)[C@@H]2CCCN2C(=O)[C@H](Cc2ccccc2)NC(=O)[C@@H](CC(C)C)N(C)C(=O)[C@H]2CCCN2C1=O | 2.3 |
| CCCN1CC(=O)N(C)[C@H](CC(C)C)C(=O)N(Cc2ccccc2)CC(=O)N2CCC[C@H]2C(=O)N[C@@H](CC(C)C)C(=O)N[C@@H](Cc2ccccc2)C(=O)N2CCC[C@H]2C1=O | 1.3 |
| CC(C)C[C@@H]1NC(=O)[C@H](CC(C)C)N(C)C(=O)[C@H](C)N(C)C(=O)[C@H](Cc2ccccc2)NC(=O)[C@@H](CC(C)C)NC(=O)[C@@H]2CCCN2C1=O | 1.9 |
| CC(C)C[C@@H]1C(=O)N2CCC[C@@H]2C(=O)N(C)[C@@H](CC(C)C)C(=O)N[C@@H](Cc2ccccc2)C(=O)N2CCC[C@H]2C(=O)N[C@@H](Cc2ccccc2)CC(=O)N[C@H](CC(C)C)C(=O)N1C | 4.9 |
| CC(C)C[C@@H]1NC(=O)[C@@H]2CCCN2C(=O)C[C@H](Cc2ccccc2)NC(=O)[C@@H](CC(C)C)NC(=O)[C@@H](C)N(C)C(=O)[C@H](Cc2ccccc2)NC1=O | 1.3 |
| CC(C)C[C@@H]1C(=O)N2CCC[C@H]2C(=O)N[C@H](CC(C)C)C(=O)N[C@@H](Cc2ccccc2)C(=O)N2CCC[C@H]2C(=O)N(C)[C@@H](C)C(=O)N(C)[C@H](CC(C)C)C(=O)N1C | 0.32 |
| CC(C)C[C@@H]1NC(=O)[C@H]2CCCN2C(=O)[C@@H](CC(C)C)NC(=O)[C@@H](CC(C)C)N(C)C(=O)C[C@H](Cc2ccccc2)NC(=O)[C@H]2CCCN2C(=O)[C@H](Cc2ccccc2)NC1=O | 1 |
| CC(C)C[C@H]1NC(=O)C[C@H](Cc2ccccc2)NC(=O)[C@H]2CCCN2C(=O)[C@H](Cc2ccccc2)NC(=O)[C@H](CC(C)C)N(C)C(=O)[C@H]2CCCN2C(=O)[C@H](CC(C)C)N(C)C1=O | 3.1 |
| CC(C)C[C@H]1C(=O)N[C@@H](Cc2ccccc2)C(=O)N[C@H](C)C(=O)N(C)[C@@H](CC(C)C)C(=O)N(C)[C@@H](CC(C)C)C(=O)N2CCC[C@@H]2C(=O)N1C | 10 |
| CC(C)C[C@@H]1NC(=O)C[C@H](Cc2ccccc2)NC(=O)[C@H]2CCCN2C(=O)[C@H](Cc2ccccc2)NC(=O)[C@H](CC(C)C)N(C)C(=O)[C@H]2CCCN2C(=O)[C@H](CC(C)C)NC1=O | 4.9 |
| CC(C)C[C@H]1NC(=O)[C@@H]2CCCN2C(=O)[C@H](CC(C)C)N(C)C(=O)CN(Cc2ccccc2)C(=O)[C@H](C)N(C)C(=O)[C@H]2CCCN2C(=O)[C@H](Cc2ccccc2)NC1=O | 0.87 |
| CC(C)C[C@@H]1C(=O)N2CCC[C@H]2C(=O)N(Cc2ccccc2)CC(=O)N[C@@H](Cc2ccccc2)C(=O)N2CCC[C@@H]2C(=O)N(C)[C@H](C)C(=O)N[C@H](CC(C)C)C(=O)N1C | 6.6 |
| CC(C)C[C@@H]1NC(=O)[C@@H]2CCCN2C(=O)[C@H](CC(C)C)N(C)C(=O)[C@H](CC(C)C)NC(=O)[C@@H](C)N(C)C(=O)[C@@H]2CCCN2C(=O)[C@H](Cc2ccccc2)NC1=O | 0.29 |
| CC(C)C[C@@H]1C(=O)N2CCC[C@H]2C(=O)N(C)[C@H](CC(C)C)C(=O)N[C@@H](Cc2ccccc2)C(=O)N2CCC[C@H]2C(=O)N[C@@H](Cc2ccccc2)CC(=O)N(C)[C@@H](CC(C)C)C(=O)N1C | 5.6 |
| CC(C)C[C@@H]1C(=O)N[C@H](CC(C)C)C(=O)N2CCC[C@@H]2C(=O)N(Cc2ccccc2)CC(=O)N[C@@H](Cc2ccccc2)C(=O)N[C@H](C)C(=O)N1C | 2.2 |
| CC(C)C[C@H]1C(=O)N2CCC[C@@H]2C(=O)N(C)[C@@H](CC(C)C)C(=O)N[C@@H](Cc2ccccc2)C(=O)N[C@@H](C)C(=O)N(Cc2ccccc2)CC(=O)N1C | 6.5 |
| CC(C)C[C@@H]1NC(=O)C[C@H](Cc2ccccc2)NC(=O)[C@H]2CCCN2C(=O)[C@H](Cc2ccccc2)NC(=O)[C@@H](CC(C)C)NC(=O)[C@@H]2CCCN2C(=O)[C@@H](CC(C)C)NC1=O | 1.7 |
| CC(C)C[C@@H]1C(=O)N[C@@H](Cc2ccccc2)C(=O)N2CCC[C@H]2C(=O)N[C@@H](C)C(=O)N[C@H](CC(C)C)C(=O)N(C)[C@@H](CC(C)C)C(=O)N2CCC[C@@H]2C(=O)N1C | 2 |

Again, the 2 entries with the lowest PAMPA:

{"smiles": "CC(C)C[C@@H]1NC(=O)[C@@H]2CCCN2C(=O)[C@H](CC(C)C)N(C)C(=O)[C@H](CC(C)C)NC(=O)[C@@H](C)N(C)C(=O)[C@@H]2CCCN2C(=O)[C@H](Cc2ccccc2)NC1=O", "PAMPA (10^-6 cm/s)": "0.29"}
{"smiles": "CC(C)C[C@@H]1C(=O)N2CCC[C@H]2C(=O)N[C@H](CC(C)C)C(=O)N[C@@H](Cc2ccccc2)C(=O)N2CCC[C@H]2C(=O)N(C)[C@@H](C)C(=O)N(C)[C@H](CC(C)C)C(=O)N1C", "PAMPA (10^-6 cm/s)": "0.32"}

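Conditions beyond the assay type are not listed; see the original paper. Other peptides of the study may be missing here. Entries at the database's floor value (log10 P of -10) are not listed.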

Collected by the curators of CycPeptMPDB (Li et al. 2023) from Townsend et al. 2020, doi:10.26434/chemrxiv.13335941.v1.